## Binding of CDR-mutated scFvs to a peptide of the spike HR2 region

Reference: Engelhart et al. 2022, doi:10.1038/s41597-022-01779-4. File: FLAb, binding data.

Binding partner: SARS-CoV-2 spike HR2 peptide, sequence PDVDLGDISGINAS.

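Variants in AAYL49 differ from the parent at up to three CDR positions; double and triple changes were sampled at random. The assay is AlphaSeq: two haploid yeast populations carry antibody and antigen on their surface. After mating in shaken culture at 30 °C for 16 h, diploids were selected and their barcode pairs sequenced. Read counts were normalised to the haploid input and turned into Kd by a linear fit to BCL2-family pairs of known affinity, for each replicate. Each pool was mated in three replicate cultures.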

Ab-14 is the parent antibody, in scFv form: VH, then the linker GGGGSGGGGSGGGGS, then VL. The light chain is unchanged in all variants.
VH: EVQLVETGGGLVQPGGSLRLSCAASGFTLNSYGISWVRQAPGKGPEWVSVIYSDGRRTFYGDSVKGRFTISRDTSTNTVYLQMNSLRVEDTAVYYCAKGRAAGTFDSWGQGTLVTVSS
VL: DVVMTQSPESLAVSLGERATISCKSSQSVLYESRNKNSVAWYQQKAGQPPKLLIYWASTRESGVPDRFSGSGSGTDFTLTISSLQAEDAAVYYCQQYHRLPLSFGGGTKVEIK

Changes read parent residue, position, new residue, counted from the first residue of the VH shown. Scale: log10 of Kd in nM, estimated from mating counts; low values are strong binders. "ND" means that the variant was in the library but no mating with the target was seen in that replicate; the authors take this as a sign of poor binding, and no number exists. Three control strains display no target. For library AAYL49, 15% of the pairings with them gave a signal, with a median of 4.06 and one signal in twenty below 2.83, so weak values seen in few replicates may be background. For each scFv, signals with the empty controls are counted beside the result, with their mean in brackets.

| changes | log10 Kd (nM) by replicate | empty controls |
|---|---|---|
| N30M | 0.63 / 1.22 / 1.05 | 0/9 |
| G55Q K65N R100T | 4.14 / ND / ND | 3/9 (4.40) |
| S31G I51G F59M | ND / ND / ND | 0/9 |
| R100Y G103P D106F | ND / ND / ND | 1/9 (3.27) |
| R100E F105L D106L | ND / ND / ND | 0/9 |
| S31V D54G S107P | ND / ND / ND | 0/9 |
| S53C G103H S107A | ND / ND / ND | 2/9 (3.66) |
| G26V S31I G33M | ND / ND / ND | 2/9 (3.78) |
| V50T Y60H A101K | ND / ND / ND | 0/9 |
| I34R G55W D106P | 4.36 / 5.69 / 4.73 | 9/9 (4.57) |
| L29A F59T G61V | ND / ND / ND | 0/9 |
| Y52A Y60N D106K | ND / ND / ND | 3/9 (4.19) |
| G26I G55K R100I | ND / ND / ND | 0/9 |
| S53G R56H R57K | 4.33 / 3.82 / ND | 0/9 |
| G26C N30M S31A | ND / ND / ND | 0/9 |
| D54S K65D | 2.99 / 1.74 / 2.44 | 0/9 |
| G61I R100Y | 0.42 / 0.60 / 0.53 | 3/9 (3.74) |
| L29V V50M R56V | ND / ND / 5.06 | 1/9 (3.43) |
| I51S G55N R56Y | 4.44 / 3.38 / ND | 6/9 (4.42) |
| F59L G103Y | 3.66 / 3.77 / 2.96 | 2/9 (3.84) |
| I51H D62H S63E | 4.74 / 3.36 / ND | 1/9 (4.20) |
| F27G S31F K65S | 2.92 / 2.13 / 2.45 | 2/9 (3.96) |
| N30G Y60R A102W | ND / ND / ND | 0/9 |
| F59L K65S D106W | ND / ND / ND | 3/9 (4.14) |
| T58N | 2.20 / 1.64 / 2.24 | 3/9 (4.55) |
| I51W D106E | 4.51 / ND / ND | 0/9 |
| I34F S35T T58K | ND / 3.86 / ND | 3/9 (4.49) |
| G103F F105D | ND / ND / ND | 0/9 |
| I51Q G99L D106I | ND / 4.01 / 5.59 | 3/9 (4.17) |
| D54F K65F S107Y | ND / ND / ND | 0/9 |
| V50F G55P Y60P | 6.47 / ND / 5.29 | 2/9 (5.21) |
| N30M K65N A102Q | 1.76 / 1.55 / 2.01 | 1/9 (3.64) |
| D54N V64D G99A | ND / ND / ND | 0/9 |
| R57D G99I A102L | ND / ND / 5.54 | 1/9 (3.34) |
| N30Y R56I T104R | ND / ND / ND | 0/9 |
| S53F V64R G103R | ND / ND / ND | 0/9 |
| N30W G55V D62M | ND / ND / ND | 0/9 |
| T58K G61C | 2.48 / 1.68 / 2.33 | 1/9 (5.77) |
| R56V F59P A102G | ND / ND / ND | 1/9 (2.17) |
| F27M V64L F105Q | 5.44 / 3.93 / ND | 5/9 (4.54) |
| I34A G61K S63E | ND / ND / ND | 0/9 |
| T104W D106H | ND / ND / ND | 1/9 (3.74) |
| S53Q G55H S107P | ND / ND / ND | 0/9 |
| Y52K S63A R100I | ND / ND / ND | 1/9 (4.71) |
| S35K Y60C G103D | ND / ND / ND | 0/9 |

The opening 4 entries, copied out:

| changes | log10 Kd (nM) by replicate | empty controls |
|---|---|---|
| N30M | 0.63 / 1.22 / 1.05 | 0/9 |
| G55Q K65N R100T | 4.14 / ND / ND | 3/9 (4.40) |
| S31G I51G F59M | ND / ND / ND | 0/9 |
| R100Y G103P D106F | ND / ND / ND | 1/9 (3.27) |